In US20140357633A1, “COMPOUNDS FOR INHIBITING THE INTERACTION OF BCL2 WITH BINDING PARTNERS” (NOVARTIS AG, priority 2011, published 2014):
Values joined by “and” are separate entries in the source; they are usually repeats but may differ in a detail not shown here. Identical values can stand only once.

Sequences of proteins named here, by UniProt entry; tags and fusion partners are left off.
UniProt P10415, whole entry: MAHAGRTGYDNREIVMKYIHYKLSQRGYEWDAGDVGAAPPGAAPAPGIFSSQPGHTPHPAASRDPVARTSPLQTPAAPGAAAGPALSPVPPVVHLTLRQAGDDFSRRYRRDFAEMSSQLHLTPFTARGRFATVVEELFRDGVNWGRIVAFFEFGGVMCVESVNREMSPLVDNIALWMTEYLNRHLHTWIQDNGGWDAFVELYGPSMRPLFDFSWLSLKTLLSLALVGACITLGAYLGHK

Assays:
[1] = biological target: BCL-2 (binding to BAK peptide) (Homo sapiens, UniProt P10415); assay: SPR (Biacore) solution inhibition assay, BCL-2 binding to immobilized BAK peptide; details: read-out: BCL2_SPR IC50 BAK; biotinylated BAK peptide surface, 56 nM BCL-2, 25° C.; range = high and low IC50 values from multiple experiments
From the text: (§1) The present method includes utility of a Surface plasmon resonance (SPR)-based biosensor (Biacore™′ GE Healthcare, Uppsala, Sweden) to characterize BCL-2 inhibitors.
(§2) Biacore™ utilizes the phenomenon of surface plasmon resonance (SPR) to detect and measure binding interactions. In a typical Biacore experiment, one of the interacting molecules (ligand) is immobilized on a flexible dextran matrix while the interacting partner (analyte) is allowed to flow across that surface. A binding interaction results in an increase in mass on the sensor surface and a corresponding direct change in the refractive index of the medium in the vicinity of the sensor surface. Changes in refractive index or signal are recorded in resonance units (R.U.) Signal changes due to association and dissociation of complexes are monitored in a non-invasive manner, continuously and in real-time, the results of which are reported in the form of a sensorgram.
(§3) The SPR assay is configured to examine solution inhibition of BCL-2 binding to peptide derivatized sensor surfaces to generate IC50 values as a measure of inhibitor potency.
(§4) Biacore™ A100 (GE Healthcare, Uppsala, Sweden) was used to conduct all experiments reported herein. Sensor surface preparation and all interaction analyses experiments were performed at 25° C. Reagents were purchased from GE Healthcare. Running buffer containing 10 mM Hepes, pH7.4, 150 mM sodium chloride, 1.25 mM Dithiothreitol, 3% Dimethyl sulfoxide and 0.05% polysorbate 20 were utilized throughout all analyses.
(§5) Biotinylated BAK, BAD and NOXA peptides were diluted to 10 nM in running buffer and captured onto a sensor surface pre-derivatized with streptavidin (sensor chip SA) to peptide surface densities in the range 50-100 R.U. Peptide captured surfaces were blocked with 500 μM PEO2-Biotin.
(§6) Interaction analyses were performed by first equilibrating each sample within a 6 point three fold compound dilution series in the range 16 μM to […] with 56 nM BCL-2 for one hour during instrument start-up procedures. […]

[2] = biological target: BCL-2 (binding to BAD peptide) (Homo sapiens, UniProt P10415); assay: SPR (Biacore) solution inhibition assay, BCL-2 binding to immobilized BAD peptide; details: read-out: BCL2_SPR IC50 BAD; biotinylated BAD peptide surface, 56 nM BCL-2, 25° C.; range = high and low IC50 values from multiple experiments
From the text: as §1, §2, §3, §4, §5, §6

SMILES | IC50 [1] | IC50 [2]
CCCCN(CCCC)C(=O)c1cc(C)n(-c2ccc(NC(=O)c3ccc4c(c3)S(=O)(=O)c3ccccc3C4=O)cc2C(=O)N2Cc3ccccc3C[C@H]2CO)n1 | 361 to 369 nM | 643 nM
CCCCN(CCCC)C(=O)c1cc(C)n(-c2ccc(NC(=O)Cc3ccc4ccccc4c3)cc2C(=O)N2Cc3ccccc3C[C@H]2CO)n1 | 39.2 to 39.4 nM and 34.2 nM and 30.6 to 37.7 nM | 43.4 to 43.5 nM and 39.1 nM and 34.6 to 36.1 nM
CCCCN(CCCC)C(=O)c1cc(C)n(-c2ccc(NC(=O)COC34CC5CC(CC(C5)C3)C4)cc2C(=O)N2Cc3ccccc3C[C@H]2CO)n1 | 459 to 476 nM | 601 to 606 nM
